Apparent affinities of Ab-14 variants for a coronavirus HR2 peptide

Target peptide (SARS-CoV-2 spike, HR2 region): PDVDLGDISGINAS

Parent: Ab-14, a human scFv built as VH, a 15-residue (Gly4Ser)3 linker, VL. Only the CDRs of the light chain vary.
VH: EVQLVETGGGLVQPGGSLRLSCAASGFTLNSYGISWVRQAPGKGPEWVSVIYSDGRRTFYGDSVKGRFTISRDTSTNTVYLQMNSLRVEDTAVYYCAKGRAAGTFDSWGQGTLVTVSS
VL: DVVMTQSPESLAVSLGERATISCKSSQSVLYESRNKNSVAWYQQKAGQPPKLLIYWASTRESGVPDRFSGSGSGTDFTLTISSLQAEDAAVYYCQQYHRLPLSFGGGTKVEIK

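Phage display of a naive human antibody library on the peptide gave the parent. These sequences belong to a second round, designed from the earlier measurements on random variants of the parent. Their group label is 14L_Ctrl (Ctrl: baseline library sampled from a position-specific scoring matrix, with some repeated check sequences). In AlphaSeq, yeast of one mating type display the scFv and yeast of the other type display the target. Pairs that bind mate more often; barcode pairs of the diploids are counted by sequencing. The ratio of observed to expected reads was calibrated, replicate by replicate, on BCL2-family standards whose Kd was known from biolayer interferometry. Mating was done six times.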

Each variant is given by its three light chain CDRs, as the data file delimits them; those of the parent are KSSQSVLYESRNKNSVA, WASTRES, QQYHRLPLS. Affinities are written as log10 Kd with Kd in nM; a lower number is a better binder. A mean of the replicates is given; it leaves out those without a signal. "nd" means that the variant was in the library but no mating with the target was seen in that replicate; the authors take this as a sign of poor binding, and no number exists.

The variant KLSQSSLYESTNRNSVA | WASTRES | QQYHRLPLS showed 1.17, 0.76, 0.98, 0.64, 0.76, 0.81 (mean 0.85; controls 0 of 18).
The variant KYSTSDLYESTNKNSVA | WASTRES | QQYHRLPLS showed 1.24, 1.10, 0.70, 0.85, 0.94, 1.07 (mean 0.98; controls 1 of 18).
The variant KSSQSGLYESRNKNVVA | GASTREN | QQYHRLPLS showed 1.67, 1.31, 1.48, 1.35, 0.97, 1.49 (mean 1.38; controls 2 of 18).
The variant KSSQSVLGESRNKNSVA | WASTRES | QQYIRLPLS showed 1.49, nd, 1.93, 3.69, 1.55, 1.22 (mean 1.97; controls 0 of 18).
The variant KHSQSVLDESENSNSVA | WASTRES | QQYHRLPLS showed 1.68, 1.24, 1.55, 1.67, 1.61, 1.60 (mean 1.56; controls 1 of 18).
The variant KSSQDVGYESRNKNSVA | WASTRES | QQYHRLMLS showed nd, 0.97, nd, 0.74, 1.11, nd (mean 0.94; controls 1 of 18).
The variant KSSQSVLYESPNKDSVA | WASERES | QQYHRLPLS showed nd, 2.46, nd, 2.32, 2.34, 2.21 (mean 2.33; controls 1 of 18).
The variant KMSQSVLYESANKNSVA | DASTRES | QQYHRLPLS showed -0.16, -0.27, -0.35, -0.26, -0.32, -0.02 (mean -0.23; controls 0 of 18).
The variant KSSQSVLYESRNKNSVA | WASTRES | QQYGRLPLS showed nd, nd, nd, nd, nd, nd (controls 1 of 18).
The variant KSSQSVLYESRNKNSLA | DASTRES | QQYHRWPLS showed 1.44, 2.17, 1.19, 1.29, 1.62, 1.99 (mean 1.62; controls 0 of 18).
The variant KSSQSVLYESRNKNSVA | WGSTREE | QQYHRLLLS showed nd, nd, nd, nd, nd, nd (controls 0 of 18).
The variant KLSQTVLYESRNKNSVA | GASTREC | QQYHRLPLS showed 2.11, 0.43, 0.79, 0.95, 0.43, 0.72 (mean 0.90; controls 0 of 18).
The variant KSCQSVLYESRNKNSIA | GASTRES | QQYHRLPLS showed -0.37, -0.37, -0.56, -0.23, -0.01, -0.57 (mean -0.35; controls 0 of 18).
The variant KSSQSVLYESRNKGSVA | SASTRES | QQYHRLCLS showed nd, 1.00, 1.49, -0.07, 0.43, 0.44 (mean 0.66; controls 0 of 18).
The variant KCSQSVLYESRNVNSVA | WASTRES | QQYHRLPLS showed 2.25, 2.52, 2.89, 2.10, 2.98, nd (mean 2.55; controls 0 of 18).
The variant KSSQPVLYEWTNKNSVA | WASTRES | QQYHRLPLS showed 0.68, 0.76, 0.94, 0.74, 0.62, 1.15 (mean 0.82; controls 2 of 18).
The variant KSSQSKLYESRNKNSVA | NASTRES | QQYHRLPLS showed nd, nd, nd, nd, nd, nd (controls 0 of 18).
The variant MNSQSVLNESDDKNSVA | WASTRES | QQYHRLPLS showed 2.47, nd, nd, 2.72, nd, nd (mean 2.60; controls 1 of 18).
The variant KSSQSVLGESRQKNSVA | HASTRES | FQYHRLPLS showed nd, nd, 2.26, nd, nd, 2.16 (mean 2.21; controls 1 of 18).
The variant KSSQSVLYESGNKNSVA | WASTRSS | QQYHRLPLS showed 2.50, 1.02, nd, 2.32, nd, 1.32 (mean 1.79; controls 0 of 18).
The variant KSSQSKLYESRNTNSVA | WASTRES | QQYHRLPLS showed nd, 2.06, nd, nd, nd, nd (controls 0 of 18).
The variant KSSQSVLYESRNKNSVA | WASTRES | QQYHRVPLS showed nd, nd, nd, nd, nd, nd (controls 0 of 18).
The variant KSSQSVLYNSRNKNSVA | WASTRES | QLYHRLPLS showed nd, nd, nd, nd, nd, nd (controls 0 of 18).
The variant KSSQSVLYESRNKNIVA | WASTRES | QQYHRLPLS showed nd, nd, nd, nd, nd, nd (controls 0 of 18).
The variant LSSQSVLYEWRNKQSVA | KASTRIS | QQYKRLPLS showed nd, nd, nd, nd, nd, nd (controls 0 of 18).
The variant KSSQSILYESLNKNSVA | WASTRES | QQYHRLPLS showed nd, nd, nd, nd, nd, nd (controls 0 of 18).
The variant KSSQSVLYESRNKNSVA | WASTRES | QQSDRLHLS showed nd, nd, nd, nd, nd, nd (controls 0 of 18).
The variant KSSQSVLYESRNQNSVA | WASTRES | QDYHRLPLS showed 0.86, 1.64, 1.17, 1.43, 3.33, 1.83 (mean 1.71; controls 1 of 18).
The variant KISQSVLYESRNKNSVA | WASQRES | QQYHRLPLS showed 0.70, 0.86, 0.46, 0.57, 0.78, 0.70 (mean 0.68; controls 0 of 18).
The variant KSSQSVLYESQNINSVA | WASTRES | QQYHRLPLL showed 1.08, 0.87, 1.54, 1.63, 1.22, 1.45 (mean 1.30; controls 0 of 18).
The variant KSSQSTLYEFGESNSVA | WASTRES | QQMHRLPLS showed nd, nd, nd, nd, nd, nd (controls 0 of 18).
The variant KSPQSVLYESRNKNSVA | WASTRSS | QQYHWLPLS showed nd, nd, nd, 1.88, nd, nd (controls 0 of 18).
The variant KSSQSKWYESRNKNSVA | WASTRGD | QQYHRLPLS showed nd, 2.64, 2.83, nd, 2.07, 1.82 (mean 2.34; controls 0 of 18).
The variant KSSQSVLYESRNKNSVA | KASTRES | QDYHRLPLS showed 1.75, 1.46, 1.77, 0.57, 1.97, 2.22 (mean 1.62; controls 1 of 18).
The variant KSSHSVLYESRNKNSVA | WASTRES | QAYHRLPLS showed nd, nd, nd, nd, nd, nd (controls 0 of 18).
The variant KSSLSVLYESRNKNSVA | NASTRES | QQYHRLPLS showed 0.83, 0.61, 0.43, 0.37, 0.30, 0.52 (mean 0.51; controls 1 of 18).

Excerpt, the first 3 entries:

KLSQSSLYESTNRNSVA | WASTRES | QQYHRLPLS: 1.17, 0.76, 0.98, 0.64, 0.76, 0.81 (mean 0.85; controls 0 of 18).
KYSTSDLYESTNKNSVA | WASTRES | QQYHRLPLS: 1.24, 1.10, 0.70, 0.85, 0.94, 1.07 (mean 0.98; controls 1 of 18).
KSSQSGLYESRNKNVVA | GASTREN | QQYHRLPLS: 1.67, 1.31, 1.48, 1.35, 0.97, 1.49 (mean 1.38; controls 2 of 18).

The authors' rule: three or more of the six replicates give a measured affinity, fewer mean a poor binder. The parent sequence was in this pool as ten entries: three were never detected, three once, and four in most replicates, with averages from 0.34 to 2.37. The range of this assay differs from that of the first round, and the authors advise against merging the two. Empty control strains, which show no peptide, gave a signal in 4% of pairings with all light chain designs; the median was 2.64 and 95% of these signals were weaker than 1.59. No background was subtracted. Also given: how often the same scFv was detected with the empty control strains.

Source: Li et al. 2023 (doi:10.1038/s41467-023-39022-2), MIT Lincoln Laboratory and A-Alpha Bio; data file from the FLAb repository.